Results on 1 compound are retold here after patent publication US11045519B2, “Arginine-rich polypeptide compositions and methods of using same” (UNM Rainforest Innovations, priority 2017, dated 2021).

This test has as its system HPV16 pseudovirions (PsVs). The conditions noted are these: read-out: IC50 of HPV16 PsV infection of HaCaT cells; pretreatment before PsV exposure, 24 h, two independent duplicate experiments.

For orientation: IC50 means the concentration needed to halve the response being measured.

As to `N=C(N)NCCC[C@H](NC(=O)[C@H](CCCNC(=N)N)NC(=O)[C@H](CCCNC(=N)N)NC(=O)[C@H](CCCNC(=N)N)NC(=O)[C@H](CCCNC(=N)N)NC(=O)[C@H](CCCNC(=N)N)NC(=O)[C@H](CCCNC(=N)N)NC(=O)[C@H](CCCNC(=N)N)NC(=O)[C@@H](N)CCCNC(=N)N)C(=O)O` [R9, arginine nonapeptide], the IC50 stood at 1.55 µM.
